From patent US12303474B2, “S-enantiomerically enriched compositions of beta blockers for treating amyotrophic lateral sclerosis” (priority 2013, dated 2025)

What was measured:
[1] = test system: G93A SOD1 B6SJL hybrid (G93A) model; conditions: 30 mg/kg/d;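 on HR survival (FIG. 14): dosing began after ALS onset in G93A SOD1 mice, with survival as the endpoint, defined humanely as the animal failing to regain upright posture within 30 s when placed sideways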;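 on HR survival (FIG. 16): dosing began after ALS onset in G93A SOD1 mice, with survival as the endpoint, defined humanely as the animal failing to regain upright posture within 30 s when placed sideways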
Protocol: Transgenic mice over-expressing a high copy number (25 copies) of mutated human SOD1 gene with a G93A point mutation, i.e., B6SJL-TgN [SOD1-G93A]1 Gur (G1H-G93A transgenic mice, JR2726; Hemizygote) (Gurney M E, et al., Science, 264, 1772-1775, 1994) (“G93A SOD1 B6SJL hybrid (G93A) model”), were used.
To study the effect of the test compounds on skeletal muscle atrophy, the skeletal muscle mass were determined at the end of the study.
The number of all mice in the population is indicated as “n” in at the bottom of FIGS. 21A-21C.
The number of all mice in the population is indicated as “n” in at the bottom of FIGS. 20D-20F.
The number of all mice in the population is indicated as “n” in at the bottom of FIGS. 21G-21I.

[2] = test system: G93A SOD1 B6SJL hybrid (G93A) model; conditions: 30 mg/kg/day vs. placebo;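 on HR survival (FIG. 14): dosing began after ALS onset in G93A SOD1 mice, with survival as the endpoint, defined humanely as the animal failing to regain upright posture within 30 s when placed sideways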;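 on HR survival (FIG. 16): dosing began after ALS onset in G93A SOD1 mice, with survival as the endpoint, defined humanely as the animal failing to regain upright posture within 30 s when placed sideways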

With `Nc1nc2ccc(OC(F)(F)F)cc2s1` [rilutek] the “BAT (brown adipose tissue)” value ([1]; all mice) was 53.7 ± 2.9 mg, the “BAT (brown adipose tissue)” value ([1]; female mice) was 53.7 ± 4.5 mg and the “BAT (brown adipose tissue)” value ([1]; male mice) was 54.8 ± 3.9 mg. The “HR survival (FIG. 14)” value ([2]; all mice) was 0.89, the “HR survival (FIG. 16)” value ([2]; female mice) was 1.08 and the “HR survival (FIG. 15)” value ([2]; male mice) was 0.63.

Read-outs that look alike come from different tables or passages of the source.
